Protein sequences, listed by entry. Tags and fused reporters are not part of them.
UniProt P41595, whole entry: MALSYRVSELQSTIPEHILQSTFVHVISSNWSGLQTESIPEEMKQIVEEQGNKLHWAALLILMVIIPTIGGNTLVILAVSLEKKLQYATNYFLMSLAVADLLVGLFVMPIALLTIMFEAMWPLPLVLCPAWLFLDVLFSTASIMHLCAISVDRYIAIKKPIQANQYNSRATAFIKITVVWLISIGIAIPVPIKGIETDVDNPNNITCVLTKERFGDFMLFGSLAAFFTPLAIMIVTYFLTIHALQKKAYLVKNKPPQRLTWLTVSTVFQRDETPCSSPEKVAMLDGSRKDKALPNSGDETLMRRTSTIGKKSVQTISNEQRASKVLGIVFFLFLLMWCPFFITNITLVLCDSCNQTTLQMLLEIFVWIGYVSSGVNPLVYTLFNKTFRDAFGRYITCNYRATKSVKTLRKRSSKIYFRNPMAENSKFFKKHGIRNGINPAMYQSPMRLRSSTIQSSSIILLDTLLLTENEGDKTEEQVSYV

In patent US20250059217A1, “HETEROCYCLIC COMPOUNDS AND METHODS OF PREPARATION THEREOF” (priority 2021, published 2025):

Molecular target: T1, 5-HT2B receptor (Homo sapiens, UniProt P41595)
T1 construct: expressed in transfected cells; host or cells: HEK293T
Assay: Serotonin receptor 5-HT2 functional assay (Gq dissociation BRET or Gq-dependent calcium flux), 5-HT2B
Assay type: cell-based

SMILES | EC50 (5-HT2B EC50 (nM), Table 5, 5-HT2B receptor, compared with psilocin) [nM] | EC50 (5-HT2B BRET EC50 (nM), Table 4, relative to 4-hydroxytryptamine, at least three replicate trials) [nM]
CN(C)CCc1c[nH]c2cccc(O)c12 [drawing 39] | 1.1 | –
CN(C)CCc1c[nH]c2cccc(O)c12 [psilocin, reference compound] | – | 1.07
